According to PMC11859423, “Fluorescent Probes to Image the KCa3.1 Channel in Tumor Cells” (Pharmaceutics, 2025):

Assays:
[1] = system: KCa3.1 channels; details: read-out: IC50 to block KCa3.1 channels; cited from earlier work
[2] = system: KCa3.1 channels; assay: Block of KCa3.1 channels (literature IC50 values); format: biochemical; details: from literature IC50 values

SMILES: Clc1ccccc1C(c1ccccc1)(c1ccccc1)n1cccn1 [TRAM-34]
- IC50 [1]: 20 nM
- fold more potent than clotrimazole to block KCa3.1 channels [2]: 5–10 fold
